Measurements: USH1427H, “Substituted flavonoid compounds, their salts, their manufacture and their use in combination with interleukin-2” (priority 1992, dated 1995)
“Also recorded” adds a separate entry of the source. Where two headings read alike, the source gives them in different places.

Key:
[1] = large amounts of rIL-2, humans; Moertel; cited from earlier work
cancer = conditions: certain human cancer patients, b80: near toxic dosages, cited from earlier work
tumor = conditions: cited from earlier work; for anti-tumor activity of rIL-2 in mice/rodents: used alone, near toxic dosages
[2] = test system: Renca renal adenocarcinoma; assay: Survival of Renca-bearing mice treated with flavonoid and/or rIL-2; type: in vivo, BALB/C mice; conditions: single agent, FIGS. 2a, 2b, 3a and 3b
Excerpt: Tumor model. The model used for these studies is the Renca renal adenocarcinoma, a tumor that originated spontaneously and is maintained by serial transplant in BALB/C mice (JNCI, vol. 50, 1013 (1973)). The growth characteristics of this tumor have been previously described in detail (J. Immunol., vol. 138, 641 (1987)). After injection of 1×10^5 tumor cells under the renal capsule, the solid tumor mass develops rapidly with direct extension to the peritoneal cavity by days 7 to 9 and metastasis to regional lymph nodes and the liver shortly thereafter. Surgical resection of the primary tumor-bearing kidney is potentially curative before day 8 but not thereafter when mice succumb to peritoneal carcinomatosis and subsequent metastatic disease. Flavonoid was administered by injection of 125 mg/kg i.v. and 125 mg/kg i.p., whereas various doses of rIL-2 were delivered by the i.p. route. Routinely, flavonoid was administered 2 to 4 h after nephrectomy of the primary tumor-bearing kidney on day 11, and rIL-2 was administered once per day for 4 successive days beginning on the day after nephrectomy and FAA treatment. […]
FIGS. 2a, 2b, 3a and 3b illustrate the effect of treatment with various flavonoids and/or rIL-2 on the survival of Renca-bearing mice. […] Mice were then monitored for survival and statistical analyses performed by the .chi.^2 test.

rIL-2: recombinant interleukin-2, most preferably recombinant human interleukin-2
toxic side effects [1]: severe and dose-limiting toxic side effects | anti-tumor activity of rIL-2 in humans (cancer): notable anti-tumor activity; also recorded: some anti-tumor effects | anti-tumor activity of rIL-2 in humans (cancer; listed as IL-2): induce antitumor effects | anti-tumor activity of rIL-2 in mice/rodents (tumor): notable anti-tumor activity; also recorded: some anti-tumor effects | anti-tumor activity of rIL-2 in mice/rodents (tumor; listed as IL-2): induce antitumor effects | therapeutic efficacy of rIL-2 in conjunction with adoptive immunotherapy (tumor; with adoptive immunotherapy, Mule et al., Rosenberg et al., Salup et al.): enhanced | long-term survival, independent use of flavonoid or interleukin-2 [2]: unable to induce such long-term survival
